# Antibody variant affinities, Ab-14 light chain, assay B

Data: MIT Lincoln Laboratory AlphaSeq set, Li et al. 2023, doi:10.1038/s41467-023-39022-2, as distributed in FLAb.

The target is the same throughout: PDVDLGDISGINAS, from the HR2 region of SARS-CoV-2 spike.

Each scFv is VH, a 15-residue (Gly4Ser)3 linker, VL, as in the parent Ab-14, and differs from it in the CDRs of the light chain only.
VH: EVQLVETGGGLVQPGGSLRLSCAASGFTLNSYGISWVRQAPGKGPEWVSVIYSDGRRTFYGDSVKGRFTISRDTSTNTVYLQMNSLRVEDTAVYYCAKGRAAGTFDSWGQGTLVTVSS
VL: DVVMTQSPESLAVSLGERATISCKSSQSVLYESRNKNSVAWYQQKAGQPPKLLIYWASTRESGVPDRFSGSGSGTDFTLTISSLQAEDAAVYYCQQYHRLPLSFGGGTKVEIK

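Phage display of a naive human antibody library on the peptide gave the parent. Designed CDR sequences, proposed from the first random library and measured here. Their group label is 14L_En_HC (En: ensemble of fine-tuned language models; HC: hill climbing; a sequence that several methods proposed may carry one label only). Affinity was read by AlphaSeq, a pooled yeast mating assay with surface-displayed partners. Pairs that bind mate more often; barcode pairs of the diploids are counted by sequencing. Each replicate has its own calibration line, from reference interactions of the BCL2 family. Mating was done six times.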

Each variant is given by its three light chain CDRs, as the data file delimits them; those of the parent are KSSQSVLYESRNKNSVA, WASTRES, QQYHRLPLS. The read-out is the apparent dissociation constant on a log10 scale (nM): the lower, the stronger. "nd" means that the variant was in the library but no mating with the target was seen in that replicate; the authors take this as a sign of poor binding, and no number exists. As a blank, each scFv also met three strains without target: over all light chain designs, 4% of these pairings were detected, typically at 2.64 and seldom below 1.59. The control count says in how many pairings with the empty strains this scFv gave a signal, with their mean in brackets.

| CDR-L1 | CDR-L2 | CDR-L3 | log10 Kd (nM) by replicate | control signals |
|---|---|---|---|---|
| TLTQVQGMESHNKDSVA | DLSTRGN | QQYHRLPLS | 1.28 0.36 0.59 0.42 0.27 0.60 | 0/18 |
| IISQSVMGEKRNKNSVA | QTSERNY | QQYDRLPLS | 1.34 0.85 1.17 0.91 0.81 1.23 | 0/18 |
| MISQLFMYGSRHYNSIA | QASTREK | QQYDRLPLI | 1.75 1.92 1.08 0.92 1.35 2.16 | 1/18 (2.82) |
| KLSYSVRMESFNKDNVA | ENSTREA | QDYHRLPLS | 2.21 1.92 2.25 2.93 1.93 nd | 1/18 (2.82) |
| KISMSYRYESQNKNNIA | EMSRREN | QQYHRLPLS | 0.84 2.40 0.44 nd 0.16 1.13 | 0/18 |
| TLSQMWGMESHHKNNVA | QESTREK | QQYFRLPIS | 0.75 0.51 0.42 0.61 0.28 0.36 | 1/18 (1.62) |
| KITGMWTFESKNKNNIA | EESTRED | QSYHRLPLS | 0.51 0.36 0.48 0.51 0.41 0.67 | 2/18 (2.58) |
| MISESAMYESRNRNSVA | DNSTRED | QCYDRLPLS | nd 2.22 1.38 2.37 2.23 2.33 | 0/18 |
| KISGYLQHESKNKNSVA | EMVNRES | QQYDRLPLS | 0.73 0.51 0.68 1.16 1.21 1.21 | 1/18 (1.56) |
| KISQSIMFMSGNKNAIA | QMEMREE | QQYHRLPLS | 0.39 0.55 0.19 0.29 0.46 0.38 | 0/18 |
| KLRQVTGYESYTKNSVA | QTSTRAS | QDYHRLPLS | 1.25 1.22 0.76 1.09 1.34 1.41 | 3/18 (2.43) |
| KLSQVTHLEHKNKNSIA | EMVTREK | QQYDRLPLS | 0.93 1.27 0.52 1.27 1.04 1.18 | 0/18 |
| KLGSSTRFESSNKASIA | DNSTREA | QQYHRLPLS | nd 1.11 nd 1.72 1.52 1.73 | 0/18 |
| KLSLFYRVETREKNSVA | DNSTRES | QDYDRLPLS | nd nd 2.73 nd nd nd | 2/18 (3.43) |
| HLSDAVKMESRNTNSVA | DNSTRGS | QQYDRLPLS | 1.23 0.79 0.68 0.73 1.02 0.82 | 1/18 (2.56) |
| KLVQMTGIESHAKNSLA | DANRREE | QQYHRLPLS | 0.15 -0.24 -0.11 -0.33 -0.18 0.06 | 0/18 |
| MISDLTMYGSRNKNSVA | DLSYRGS | QQYHRLPLS | 0.32 0.22 0.16 0.28 0.16 0.47 | 0/18 |
| NFSQMVLTGSTLKNSVA | HASEREE | QQYHRLPLI | 1.65 2.23 1.43 1.18 1.66 1.88 | 0/18 |
| IMSQSVLGESRNINSVA | QTSEREY | QQYDRLPLS | 0.96 nd 0.85 1.25 0.60 1.60 | 0/18 |
| KITGMWTFESRNRNNIA | EESTRED | QSYHRLPLS | 0.06 nd 0.26 0.18 nd 1.42 | 0/18 |
| MAYGGDMLESVTRNSVA | NAETRVD | QDYHRLPLS | 1.19 0.84 0.35 0.59 1.34 0.90 | 4/18 (2.25) |
| KITQMVNFESTHINAVA | QMSTREE | QQYFRLPLS | 0.69 1.29 0.77 1.99 0.87 0.68 | 1/18 (2.83) |
| KVSESAAFLSRNRNSVA | DNSTRGS | QQYHRLPLS | 0.78 0.80 0.76 0.81 0.87 0.70 | 0/18 |
| KLSLSWLFESIEHNSVA | ERSTRES | QDYNRLPLS | nd 1.75 nd nd nd nd | 1/18 (1.27) |
| SLMQVDGYLSNNKNSIA | DLRTRES | QQYHRLPLS | 0.42 0.36 0.05 0.03 0.20 0.31 | 0/18 |
| TLSDLMHMESRNANSVA | DLVKRES | QQYHRLPLS | 0.03 -0.13 -0.13 -0.07 0.00 0.12 | 0/18 |
| KLRISTHIESFNKNNVA | EMTTRES | QSYDRLPLS | nd nd nd nd 1.37 2.19 | 0/18 |
| KIGQMVLTGSYVKNSVA | QSSTREN | QQYHRLPLS | 0.69 0.36 0.41 0.20 0.33 0.43 | 1/18 (2.13) |
| IFSQSVLMGNLTRNSVA | QASTRFN | QQYHRLPLI | 2.28 2.31 nd 2.07 3.24 2.13 | 0/18 |
| KLSVSMLLESFHRNNVA | ENSTREE | QHYHRLPLS | nd nd nd nd nd nd | 0/18 |
| TIGPMLMTESHQKNNVA | GMQTRER | QQYHRLPLS | 1.76 1.61 1.62 2.39 1.81 2.00 | 2/18 (2.80) |
| KFSQSVMFMSGVYNSVA | QMSTRAE | QQYNRLPLS | -0.08 -0.20 -0.28 -0.32 -0.34 -0.10 | 0/18 |
| QLSGPMMMESRNKNSVA | EFSTRGS | QQYHRLPLS | 2.62 2.18 1.89 1.67 2.08 1.69 | 1/18 (3.01) |
| QIYDATGMESRNKNPIA | DVSTRPS | QQYDRLPLS | 0.24 0.24 0.02 0.21 0.07 0.21 | 4/18 (2.73) |
| KFGQMVLTGAYVSNSVA | QSSTREN | QQYHRLPLS | 0.30 0.08 0.53 0.11 0.26 0.76 | 1/18 (4.01) |
| KLSMSMLMESRKKNSVA | ENSTREE | QHYHRLPLS | nd 1.65 2.46 1.92 1.38 2.01 | 1/18 (2.50) |
| NVGQSMDGASRNKNSVA | HQSTRED | QHYHRLPLS | 3.09 0.90 2.38 1.74 0.64 1.00 | 0/18 |
| HISPSFMVESRLKNSVA | QTETRVE | QQYDRLPLS | 0.31 0.31 0.36 0.24 0.18 0.60 | 1/18 (3.73) |
| KISASVNYEMVNGQSVA | QMSTRES | QQYDRLPLS | 1.01 0.80 0.70 0.78 0.86 1.21 | 0/18 |
| HLSQSTDLESVHKNSIA | DLMTREE | QQYHRLPLS | 0.08 -0.06 -0.10 -0.22 -0.29 -0.15 | 0/18 |
| MFSQTVMYESTMRNNVA | QTSTREE | QQYDRLPLS | 0.63 0.55 0.30 0.21 0.38 0.72 | 1/18 (2.80) |
| KLLQTVMNETRNRNNVA | HMTTRED | QQYFRLPLS | 1.01 1.48 0.75 0.80 1.41 0.96 | 1/18 (3.19) |
| TISQSWYIESRNKNNVA | EMSTREN | QDYDRLPLS | 0.51 0.33 -0.38 -0.13 0.12 0.31 | 0/18 |
| SFSQSVLYEQVHKNNVA | QTSTREE | QQYDHLPLS | 0.50 0.21 0.11 -0.12 -0.13 0.23 | 1/18 (2.33) |

Excerpt, the first 6 entries:

CDR-L1,CDR-L2,CDR-L3,log10 Kd (nM) by replicate,control signals
TLTQVQGMESHNKDSVA,DLSTRGN,QQYHRLPLS,1.28 0.36 0.59 0.42 0.27 0.60,0/18
IISQSVMGEKRNKNSVA,QTSERNY,QQYDRLPLS,1.34 0.85 1.17 0.91 0.81 1.23,0/18
MISQLFMYGSRHYNSIA,QASTREK,QQYDRLPLI,1.75 1.92 1.08 0.92 1.35 2.16,1/18 (2.82)
KLSYSVRMESFNKDNVA,ENSTREA,QDYHRLPLS,2.21 1.92 2.25 2.93 1.93 nd,1/18 (2.82)
KISMSYRYESQNKNNIA,EMSRREN,QQYHRLPLS,0.84 2.40 0.44 nd 0.16 1.13,0/18
TLSQMWGMESHHKNNVA,QESTREK,QQYFRLPIS,0.75 0.51 0.42 0.61 0.28 0.36,1/18 (1.62)

The authors' rule: three or more of the six replicates give a measured affinity, fewer mean a poor binder. Of ten entries with the parent sequence, four were seen in most replicates (averages 0.34 to 2.37), three in one and three in none, so single entries are noisy. A sequence measured in both rounds can read differently, since the two assays cover different ranges.